Molecular target: MITS9220_PhnD1
Settings: read-out: Dissociation constant (KD)

With phosphite [Pt] the Kd was 0.67 ± 0.1 µM.
